From PubChem BioAssay AID485347 (National Center for Advancing Translational Sciences (NCATS), 2010)
The entries are a selection whose mix differs from that of the whole data set. Some salts and complexes are drawn in separate pieces, as the source files them; their charges need not balance. The source made the active and inactive calls.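 The calls were made as follows: active = potentiation over 3 SD above the plate norm (cut at about 30% in these data); inactive = the rest.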

Chains of the proteins cited; added tags and fusions are not shown.
UniProt P14416, whole entry: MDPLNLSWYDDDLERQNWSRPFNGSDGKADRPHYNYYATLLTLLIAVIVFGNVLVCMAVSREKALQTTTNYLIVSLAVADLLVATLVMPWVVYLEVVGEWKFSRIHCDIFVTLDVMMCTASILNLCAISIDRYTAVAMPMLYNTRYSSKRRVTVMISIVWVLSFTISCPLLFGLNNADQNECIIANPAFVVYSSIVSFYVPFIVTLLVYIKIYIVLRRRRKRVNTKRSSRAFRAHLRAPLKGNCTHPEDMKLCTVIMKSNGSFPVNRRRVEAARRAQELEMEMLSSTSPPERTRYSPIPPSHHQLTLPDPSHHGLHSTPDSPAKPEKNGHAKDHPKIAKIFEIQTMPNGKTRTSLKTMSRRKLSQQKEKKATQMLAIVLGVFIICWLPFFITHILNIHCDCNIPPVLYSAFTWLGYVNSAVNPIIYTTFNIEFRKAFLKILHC

Each compound was assayed against D(2) dopamine receptor (Homo sapiens) (UniProt P14416) (assay: HTS Assay for Positive Allosteric Modulators of the Human D2 Dopamine Receptor: Primary Screen for Potentiators). Conditions: HEK293 T-REx D2, calcium flux, EC20 dopamine potentiation; at 10 µM; hits give high values.
From the text: NIH Chemical Genomics Center [NCGC] NIH Molecular Libraries Probe Centers Network [MLPCN] MLPCN Grant: NS064831-01 Assay Submitter (PI): David Sibley Dopamine receptors (DARs) are involved in the etiology and/or therapy of a number of neuropsychiatric and endocrine disorders. For instance, all receptor-based antiparkinsonian drugs work via stimulating the D2 DAR subtype whereas all FDA-approved antipsychotic agents are antagonists of this receptor. […] There are three different types of allosteric modulators that we are seeking, two of which will stimulate or augment receptor signaling, allosteric agonists and potentiators, while the third, allosteric antagonists, will attenuate receptor signaling. The present primary screening assay measures compound potentiation of an EC20 dopamine response by tracking calcium flux in a […], inducible Hek293 Trex D2 cell line.
Freshly passaged cells are plated in 1536 well black, clear bottom plates at a density of 4000 cells/well in 3 ul of complete media containing 1x tetracycline inducer. After an overnight incubation at 30 C in 5% CO2, cells are loaded with 2 ul of the no wash Calcium Assay Kit (ABD Bioquest) and incubated at room temperature for 30 to 90 minutes. A 10 cycle (1 second/cycle) baseline measurement is taken and then the FDSS online 1536 pintool delivers 23 nl of compound library (as well as dopamine controls) to the plate. The plate is measured for kinetically at 1 cycle/sec for 180 seconds and is considered to be the agonist portion of the assay (eg, compounds which activate a positive calcium response during this portion are flagged as potential agonists). Following the 180 second read, 1 ul of an EC20 of dopamine is delivered by an onboard pipette head. Measurements are taken kinetically for an additional 180 seconds.
Also: 0% is about no effect.

| SMILES | potentiation |
| --- | --- |
| c1ccc(CN2CCC(Nc3ccccc3)CC2)cc1 | inactive: -26.1% |
| CN(C)C1(CNC(=O)c2cccc(C#N)c2)CCCCC1 | inactive: 12.5% |
| CCOC(=O)C(CC)C1=NC(C)(C)Cc2ccccc21.O=[N+]([O-])c1cc([N+](=O)[O-])c(O)c([N+](=O)[O-])c1 (configuration not stated) | inactive: 2.64% |
| O=C(NCC1(N2CCOCC2)CCCCC1)c1ccc([N+](=O)[O-])cc1 | inactive: 5.13% |
| N#Cc1ccc(C(=O)NCC2(N3CCCCC3)CCCCC2)cc1 | inactive: -3.04% |
| O=C(NCC1(N2CCOCC2)CCCCC1)c1ccccc1[N+](=O)[O-] | inactive: 3.74% |
| CCc1cc(C(=O)NCC2(N3CCCCC3)CCCCC2)sc1C | inactive: -22.7% |
| O=C(OC1CN2CCC1CC2)C1c2ccccc2C=Cc2ccccc21 (configuration not stated) | inactive: 1.7% |
| O=C(O)c1cccc(Nc2c([N+](=O)[O-])cc([N+](=O)[O-])cc2[N+](=O)[O-])c1 | inactive: 4.87% |
| N/C(=N\O)c1c(N)no[n+]1[O-] | inactive: -10.4% |
| CCOC(=O)N1CCC(Nc2ccc(C)cc2)CC1 | inactive: 13.1% |
| COc1ccc(C(=O)NCC2(N3CCOCC3)CCCCC2)cc1OC | inactive: -4.96% |
| O=C(NCC1(N2CCOCC2)CCCCC1)c1cc(Br)ccc1Cl | inactive: 6.39% |
| CCCOc1ccc(C)cc1CN(CCCl)CCCl | inactive: -4.06% |
| CN1CCC(Nc2ccc(Cl)cc2)CC1 | inactive: -7.95% |
| CCC(CO)(C(=O)OC1CN2CCC1CC2)c1ccccc1 (configuration not stated) | inactive: 4.51% |
| COc1cc(OC)cc(C(=O)NCC2(N3CCOCC3)CCCCC2)c1 | inactive: -3.14% |
| COc1cc(C(=O)NCC2(N3CCOCC3)CCCCC2)cc(OC)c1OC | inactive: -3.82% |
| COc1cccc(C(=O)N(c2cc(C)cc(C)c2)C2CCN(C(=O)OC(C)(C)C)CC2)c1 | inactive: 16.5% |
| CCCOc1ccc(C(=O)NCC2(N(C)C)CCCCC2)cc1 | inactive: -11.5% |
| CC(C)(C)OC(=O)N1CCC(Nc2ccccc2)CC1 | inactive: -0.489% |
| O=C(O)C1(Nc2ccccc2)CCN(Cc2ccccc2)CC1 | inactive: -12.6% |
| CCOc1ncccc1C(=O)NCC1(N2CCOCC2)CCCCC1 | inactive: -10.5% |
| CN1CCC(Nc2ccc(F)c(Cl)c2)CC1 | inactive: -9.87% |
| O=C(NCC1(N2CCCCC2)CCCCC1)c1ccco1 | inactive: 1.14% |
| CC(C)(C)c1ccc(C(=O)NCC2(N3CCOCC3)CCCCC2)cc1 | inactive: -20.9% |

| SMILES | potentiation |
| --- | --- |
| CCN1CCC(Nc2cccc(F)c2)CC1 | inactive: -9.39% |
| Cc1ccc(C(=O)NCC2(N3CCCCC3)CCCCC2)o1 | inactive: 10.1% |
| Fc1ccccc1NC1CCN(Cc2ccccc2)CC1 | inactive: -15.4% |
| COc1cc(OC)cc(C(=O)NCC2(N3CCCCC3)CCCCC2)c1 | inactive: 22.8% |
| CN(C)C1(CNC(=O)c2ccc(C(C)(C)C)cc2)CCCCC1 | inactive: -23.3% |
| CCOC(=O)N1CCC(Nc2cccc(C)c2)CC1 | inactive: -9.51% |
| COc1cc(C(=O)NCC2(N(C)C)CCCCC2)ccc1OC(F)F | inactive: -26.4% |
| Cc1ccc(OCC(C)C)c(CN(CCCl)CCCl)c1 | inactive: -10.5% |
| COc1ccc(NC2CCN(CCc3ccccc3)CC2)c(OC)c1 | inactive: -29.8% |
| CCOC(=O)N1CCC(Nc2ccc(F)cc2)CC1 | inactive: 4.97% |
| COc1ccccc1C(=O)NCC1(N2CCOCC2)CCCCC1 | inactive: -7.8% |
| CCOc1ccc(C)cc1CN(CCCl)CCCl | inactive: -9.42% |
| O=C(NCC1(N2CCOCC2)CCCCC1)c1ccc(Cl)cc1 | inactive: 9.12% |
| CCOC(=O)N1CCC(Nc2ccc(OC)cc2)CC1 | inactive: -3.91% |
| O=C(NCC1(N2CCCCC2)CCCCC1)c1ccc(Cl)s1 | inactive: -15.9% |
| N#CC1(Nc2ccccc2)CCN(Cc2ccccc2)CC1 | inactive: -0.171% |
| O=C(OC1CN2CCC1CC2)C1c2ccccc2Oc2ccccc21 (configuration not stated) | inactive: 17.2% |
| COc1ccc(Cl)cc1C(=O)NCC1(N2CCOCC2)CCCCC1 | inactive: 5.72% |
| O=C(NCC1(N2CCOCC2)CCCCC1)c1cc2ccccc2o1 | inactive: 22.9% |
| O=C(NCC1(N2CCCCC2)CCCCC1)c1ccc(Cl)nc1 | inactive: -10.3% |
| Cc1cc(C)cc(N(C(=O)c2ccccc2)C2CCN(C(=O)OC(C)(C)C)CC2)c1 | inactive: 1.7% |
| O=C(NCC1(N2CCCCC2)CCCCC1)c1ccc(=O)[nH]c1 | inactive: 0.152% |
| O=C(NCC1(N2CCCCC2)CCCCC1)c1cccs1 | inactive: 9.43% |
| COc1ccc(C(=O)NCC2(N3CCCCC3)CCCCC2)cc1 | inactive: 19.8% |
| CC(C)(C)OC(=O)N1CCC(N(C(=O)c2ccccc2)c2ccc(F)cc2)CC1 | inactive: -4.57% |
| COc1ccc(C(=O)NCC2(N3CCCCC3)CCCCC2)c(OC)c1OC | inactive: 8.52% |

| SMILES | potentiation |
| --- | --- |
| CCCCOc1ccccc1C(=O)NCC1(N2CCOCC2)CCCCC1 | inactive: -25.9% |
| O=C(NCC1(N2CCOCC2)CCCCC1)c1ccccc1Br | inactive: 3.49% |
| CCCOc1ccc(C(=O)NCC2(N(C)C)CCCCC2)cc1OC | inactive: -7.45% |
| COc1ccc2c(c1O)-c1c(O)c(OC)cc3c1[C@H](C2)[N+](C)(C)CC3.O=[N+]([O-])c1cc([N+](=O)[O-])c([O-])c([N+](=O)[O-])c1[O-] | inactive: -4.96% |
| O=C(NCC1(N2CCCCC2)CCCCC1)c1cncc(Br)c1 | inactive: -9.2% |
| O=C(OC1CN2CCC1CC2)c1ccc([N+](=O)[O-])cc1 (configuration not stated) | inactive: -9.01% |
| COc1cc(OC)c(C(=O)NCC2(N(C)C)CCCCC2)cc1OC | inactive: -4.82% |
| COc1ccc(CN(CCCl)CCCl)cc1Cl | inactive: 12.3% |
| O=[N+]([O-])c1cc([N+](=O)[O-])c(OC2CCCCC2O)c([N+](=O)[O-])c1 (configuration not stated) | inactive: -1.46% |
| CN(C)c1cccc(C(=O)NCC2(N3CCCCC3)CCCCC2)c1 | inactive: -19.6% |
| CC(C)c1ccc(NC2CCN(C(=O)OC(C)(C)C)CC2)cc1 | inactive: 12.8% |
| CN1CCN(CCOC(=O)C(O)(c2ccccc2)c2ccccc2)CC1 | inactive: -1.69% |
| CC(C)c1ccc(C(=O)NCC2(N3CCOCC3)CCCCC2)cc1 | inactive: -2.07% |
| COc1ccc(NC2CCN(C(=O)OC(C)(C)C)CC2)cc1 | inactive: -0.342% |
| COc1cc(C(=O)NCC2(N3CCCCC3)CCCCC2)ccc1OC(F)F | inactive: -24.9% |
| O=C(NCC1(N2CCOCC2)CCCCC1)c1cc(=O)[nH]c2ccccc12 | inactive: 5.91% |
| CCCOc1cccc(C(=O)NCC2(N3CCOCC3)CCCCC2)c1 | inactive: -21.5% |
| O=C(NCC1(N2CCCCC2)CCCCC1)c1cccc(C(F)(F)F)c1 | inactive: -6.43% |
| O=[N+]([O-])c1cc([N+](=O)[O-])c(NCC2CCS(=O)(=O)C2)c([N+](=O)[O-])c1 (configuration not stated) | inactive: 3.97% |
| CCOc1ccc(C(=O)NCC2(N3CCOCC3)CCCCC2)cc1 | inactive: 7.8% |
| O=C(NCC1(N2CCCCC2)CCCCC1)c1cccc([N+](=O)[O-])c1 | inactive: 7.48% |
| CSc1ccc(C(=O)NCC2(N3CCOCC3)CCCCC2)cc1 | inactive: -9.76% |
| CCN1CCC(Nc2ccc(Cl)cc2)CC1 | inactive: 6.62% |
| N#CC1(Nc2ccccc2)CCN(CCc2ccccc2)CC1 | inactive: -5.74% |
| O=C(NCC1(N2CCCCC2)CCCCC1)c1ccc(OC(F)F)cc1 | inactive: -5.47% |
